System: isolated kidney cells (IKC)
Test: Pretreatment with antioxidants or enzyme inhibitors before 3,5-DCNB, LDH release in IKC
Conditions: 1.0 mM 3,5-DCNB, 60 min, pretreatment concentrations per Table 4

With `Cn1cc[nH]c1=S` [methimazole] the “effect of pretreatment on 3,5-DCNB-induced cytotoxicity (LDH release)” value was “significantly attenuated”.
